Test: Solubility of hafnium and zirconium tetrabromides in acetic acid-water mixtures in presence of trimellitic acid
Details: 0.0012M tetrabromide in 20% water-acetic acid at reflux, trimellitic acid 0.71M added

SMILES: [Br][Zr]([Br])([Br])[Br] [zirconium tetrabromide, reference compound]
- Appearance of solution after adding trimellitic acid: precipitation occurred

Reference: patent US5112992A, “Production of polycarboxylic acids with hafnium-activated cobalt catalyst” (Amoco Corporation, priority 1991, dated 1992)
